Measurements as given in ChEMBL document CHEMBL1127067 (1993).

Legend:
Mus musculus [1] = organism: Mus musculus; assay: Number of survivors after treating 12 mice (infected with B16 melanoma) for 60 days
Mus musculus [2] = assay: Antitumor activity against B-16 melanoma in BDF1 mice expressed as percentage increase in life span at optimum dose of 12.5 mg/kg
Mus musculus [3] = organism: Mus musculus; assay: Number of survivors after treating 42 mice (infected with P388 leukemia) for 30 days
Mus musculus [4] = assay: Antitumor activity against P388 leukemia in BDF1/CDF1 mice expressed as percentage increase in life span at optimum dose of 50 mg/kg
Mus musculus [5] = assay: Antitumor activity against P388 leukemia in BDF1/CDF1 mice expressed as percentage increase in life span at optimum dose of 25 mg/kg
Mus musculus [6] = assay: Antitumor activity against B-16 melanoma in BDF1 mice expressed as percentage increase in life span at optimum dose of 25 mg/kg
Mus musculus [7] = assay: Antitumor activity against P388 leukemia in BDF1/CDF1 mice expressed as percentage increase in life span at optimum dose of 100 mg/kg
Mus musculus [8] = assay: Antitumor activity against P388 leukemia in BDF1/CDF1 mice expressed as percentage increase in life span at optimum dose of 200 mg/kg

SMILES: CCN(/N=C/c1c2ccccc2c(/C=N/NC2=NCCN2P(=O)(O)O)c2ccccc12)C1=NCCN1
- Cures (Mus musculus [1]): 3
- ILS (Mus musculus [2]): 114%
- Cures (Mus musculus [3]): 2
- ILS (Mus musculus [4]): 132%

SMILES: O=P(O)(O)N1CCN=C1N/N=C/c1c2ccccc2c(/C=N/NC2=NCCN2P(=O)(O)O)c2ccccc12
- ILS (Mus musculus [5]): 265%
- ILS (Mus musculus [6]): 163%

SMILES: CCOP(=O)(OCC)N1CCN=C1N/N=C/c1c2ccccc2c(/C=N/NC2=NCCN2)c2ccccc12
- ILS (Mus musculus [5]): > 164%
- Cures (Mus musculus [1]): 3
- ILS (Mus musculus [6]): > 164%
- Cures (Mus musculus [3]): 3

SMILES: CCOP(=O)(OCC)N1CCN=C1N/N=C/c1c2ccccc2c(/C=N/NC2=NCCN2P(=O)(OCC)OCC)c2ccccc12
- ILS (Mus musculus [7]): 20%

SMILES: O=P(Oc1ccccc1)(Oc1ccccc1)N1CCN=C1N/N=C/c1c2ccccc2c(/C=N/NC2=NCCN2P(=O)(Oc2ccccc2)Oc2ccccc2)c2ccccc12
- ILS (Mus musculus [8]): 60%

SMILES: O=P(O)(O)N1CCN=C1N/N=C/c1c2ccccc2c(/C=N/NC2=NCCN2)c2ccccc12
- ILS (Mus musculus [5]): 345%
- Cures (Mus musculus [1]): 3
- ILS (Mus musculus [2]): 120%
- Cures (Mus musculus [3]): 4
